## Experimental logP (octanol/water) values from OPERA 2.9

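The OPERA project collected these measurements from public sources as training and test data for property models. One number stands for a compound and property, with no spread given. Conditions of the individual experiments are not part of the data. The measured form (salt, isomer or mixture) is not always the one drawn. Some upstream entries may be estimates or bounds without being marked so.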

The octanol-water partition coefficient is given as log10; larger values mean a more lipophilic compound. Cells with "–" have no entry in this list.

compound,name,log Kow
C[C@H]1C[C@@H]2[C@H]([C@@H](O)C[C@@]3(C)[C@H]2CC[C@]3(O)C(=O)CO)[C@@]2(C)C=CC(=O)C=C12,Methylprednisolone,1.5
CCOC=C(C(=O)OCC)C(=O)OCC,Diethyl ethoxymethylenemalonate,1.8
C=C(C)C(=O)OCCN(C)S(=O)(=O)C(F)(F)C(F)(F)C(F)(F)C(F)(F)F,2-(N-Methylperfluorobutanesulfonamido)ethyl methacrylate,4.89
CC(CCOS(=O)(=O)c1ccccc1)[N-]c1ccc([N-]C(C)CCOS(=O)(=O)c2ccccc2)c2c1C(=O)c1ccccc1C2=O.[Na+].[Na+] (stereo not drawn),–,1
C=CC(C)(O)CC/C=C(\C)CC (stereo partly drawn),Ethyl linalool,3.3
O=C(O)c1ccc[n+](-c2nc(NCCNc3ccc4c(c3S(=O)(=O)[O-])Oc3c(Cl)c5c(c(Cl)c3=N4)Oc3c(ccc(NCCNc4nc(Nc6cc(S(=O)(=O)[O-])ccc6S(=O)(=O)[O-])nc(-[n+]6cccc(C(=O)O)c6)n4)c3S(=O)(=O)[O-])N=5)nc(Nc3cc(S(=O)(=O)[O-])ccc3S(=O)(=O)[O-])n2)c1.[Na+].[Na+].[Na+].[Na+].[Na+].[Na+],C.I. Reactive Blue 187,-2.36
Cc1ccc(C(=O)OC[C@@H]2O[C@H](n3cc(C)c(=O)[nH]c3=O)C[C@H]2OC(=O)c2ccc(C)cc2)cc1,–,4.4
CCC[SiH](C)C,Dimethylpropylsilane,3.22
CCOC(=O)CC(NC1CCC(CC2CCC(NC(CC(=O)OCC)C(=O)OCC)CC2)CC1)C(=O)OCC (stereo not drawn),Desmophen LS 2973,5.4
CCCCCCCC/C=C\CCCCCCCCNCCCN,"N-Oleyl-1,3-propanediamine",0.03
CCC(N)CO (stereo not drawn),"1-Butanol, 2-amino-",-0.049
Cc1ccc(C2OC[C@@H]3OC(c4ccc(C)c(C)c4)O[C@H]([C@H](O)CO)[C@@H]3O2)cc1C (stereo partly drawn),"1,3:2,4-Bis(3,4-dimethylbenzylidene)-D-sorbitol",3.385
COCCOCCOCCO,2-[2-(2-Methoxyethoxy)ethoxy]ethanol,-1.29
C#CCOc1cc(-n2nc3n(c2=O)CCCC3)c(Cl)cc1Cl,Azafenidin,2.7
CCCc1nc(C)c2c(=O)nc(-c3ccccc3OCC)[nH]n12,–,3.9
COc1cc2[nH]c(=O)c(=O)[nH]c2cc1[N+](=O)[O-],"1,4-Dihydro-6-methoxy-7-nitroquinoxaline-2,3-dione",0.36
CC(=O)[O-].CN(CCC#N)c1ccc(/C=C/C2=[N+](C)c3ccccc3C2(C)C)cc1,–,1.529
C#C[C@]1(O)CC[C@H]2[C@@H]3CCC4=CCCC[C@@H]4[C@H]3C(=C)C[C@@]21CC,Desogestrel,4
COC(=O)[C@@H]1CC2=CC(=O)CC[C@]2(C)[C@H]2CC[C@@]3(C)[C@@H](CC[C@@]34CCC(=O)O4)[C@H]12,Mexrenone,1.94
CCOC(=O)C(C)=CCP(=O)(OCC)OCC,Ethyl 4-(diethoxyphosphinyl)-2-methyl-2-butenoate,1.95
NNc1c(Cl)cc(Cl)cc1Cl,"Hydrazine, (2,4,6-trichlorophenyl)-",2.23
CCOC(=O)C(C)O (stereo not drawn),Ethyl lactate,0.7
CCCCCCCCCCCCCC[N+](C)(C)C.CCCCCCCCCCCCCC[N+](C)(C)C.O=C([O-])C(=O)[O-],"Bis(N,N,N-trimethyl-1-tetradecanaminium) ethanedioate",2.6
[F][Sb-]([F])([F])([F])([F])[F].c1ccc(Sc2ccc([S+](c3ccccc3)c3ccccc3)cc2)cc1,–,-0.025
COC(=O)Cc1c(C(=O)OC)sc(N(CC(=O)OC)CC(=O)OC)c1C#N,–,1.83
CCOc1ccc(S(=O)(=O)N2CCN(C)CC2)cc1C(=O)O,2-Ethoxy-5-(4-methylpiperazine-1-sulfonyl)benzoic acid,-2.37
Nc1ncccc1Br,2-Amino-3-bromopyridine,1.5
O=S(=O)(O)CCN1CCOCC1,4-Morpholineethanesulfonic acid,-2.2
CCOC(=O)CCC1(C)OCC(CO)O1 (stereo not drawn),–,0.37
CC(=O)NCCO,N-(2-Hydroxyethyl)acetamide,0.324
C=CCC(N)CC (stereo not drawn),Hex-5-en-3-amine,1.33
O=C(O)c1cnccn1,Pyrazinoic acid,-0.18
CC(C)OC(=O)c1ccc(O)cc1,Isopropylparaben,2.613
O=CCCCC=O,Glutaraldehyde,-0.36

Excerpt, the opening 3 entries:

compound	name	log Kow
C[C@H]1C[C@@H]2[C@H]([C@@H](O)C[C@@]3(C)[C@H]2CC[C@]3(O)C(=O)CO)[C@@]2(C)C=CC(=O)C=C12	Methylprednisolone	1.5
CCOC=C(C(=O)OCC)C(=O)OCC	Diethyl ethoxymethylenemalonate	1.8
C=C(C)C(=O)OCCN(C)S(=O)(=O)C(F)(F)C(F)(F)C(F)(F)C(F)(F)F	2-(N-Methylperfluorobutanesulfonamido)ethyl methacrylate	4.89

From the experimental data distributed with OPERA 2.9.